Literature values as cited in patent US11771641B2, “Method for dyeing keratinous material by means of a premix of aminosilicone and a chromophoric compound” (Henkel AG & Co. KGaA, priority 2019, dated 2023).

Details: 25° C.

3,4,5,6-tetrachloro-2-(1,4,5,8-tetrabromo-6-hydroxy-3-oxoxanthen-9-yl)benzoic acid [Acid Red 92]
solubility in water: greater than 10 g/L
